Literature values in PMC4500090 (Biochemical and biophysical research communications, 2015).

Tested on: humans with advanced solid tumors and non-Hodgkin's lymphoma
Conditions: cited from earlier work

O=C(Nc1c[nH]nc1-c1nc2cc(CN3CCOCC3)ccc2[nH]1)NC1CC1 [AT9283]
Tolerability in phase I clinical trials: well tolerated
